From PubChem BioAssay AID504327 (National Center for Advancing Translational Sciences (NCATS), 2011)
This is a selection; strong and weak results do not stand in their true shares. Records with an inconclusive call do not appear. The source made the active and inactive calls. Calls come from the whole dose curve; as a rule, active = well fitted inhibition curve with a large enough effect; inconclusive = small, poorly fitted or top-dose-only effect, or another doubt; inactive = no such curve, though single readings can be large or run the other way.

By UniProt entry, the sequences of proteins in these tests, tags left out.
UniProt Q92830, whole entry, looked up: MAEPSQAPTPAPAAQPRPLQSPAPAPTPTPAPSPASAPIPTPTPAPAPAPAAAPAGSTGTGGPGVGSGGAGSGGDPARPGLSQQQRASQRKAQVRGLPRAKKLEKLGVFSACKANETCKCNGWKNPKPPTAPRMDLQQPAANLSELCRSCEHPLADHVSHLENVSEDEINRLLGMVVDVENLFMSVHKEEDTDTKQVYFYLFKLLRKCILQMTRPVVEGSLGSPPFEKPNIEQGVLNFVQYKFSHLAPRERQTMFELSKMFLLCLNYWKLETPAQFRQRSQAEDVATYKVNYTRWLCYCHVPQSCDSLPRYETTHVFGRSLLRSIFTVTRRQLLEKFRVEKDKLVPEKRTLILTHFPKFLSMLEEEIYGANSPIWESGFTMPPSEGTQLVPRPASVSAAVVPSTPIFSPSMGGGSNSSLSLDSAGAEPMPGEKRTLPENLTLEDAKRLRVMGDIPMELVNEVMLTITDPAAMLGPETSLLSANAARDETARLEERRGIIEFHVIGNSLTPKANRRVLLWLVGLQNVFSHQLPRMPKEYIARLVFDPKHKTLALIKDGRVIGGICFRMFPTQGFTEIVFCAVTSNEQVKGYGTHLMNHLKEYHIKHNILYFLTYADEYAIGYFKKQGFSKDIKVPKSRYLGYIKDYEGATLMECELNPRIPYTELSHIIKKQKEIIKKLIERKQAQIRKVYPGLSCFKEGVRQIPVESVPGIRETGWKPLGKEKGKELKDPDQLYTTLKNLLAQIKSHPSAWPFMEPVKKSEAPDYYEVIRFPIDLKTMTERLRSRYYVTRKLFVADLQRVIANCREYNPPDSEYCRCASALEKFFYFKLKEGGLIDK

What follows are compounds tested against Histone acetyltransferase KAT2A (Homo sapiens) (UniProt Q92830) (assay: qHTS Assay for Inhibitors of GCN5L2). Details: GCN5L2 HAT assay, ThioGlo1 CoA-SH fluorescence; series mostly up to 58.9 µM; activity change, negative = inhibition: at the top concentration.
% is set by controls: 0 for no effect and ±100 for the full control effect.

Row | Compound | activity change, negative = inhibition | Potency
1 | O=[As](O)(c1ccccc1)c1ccc(O)cc1 | inactive: 2.63% | –
2 | C(Cc1nn[nH]n1)Cc1nn[nH]n1 | inactive: -1.45% | –
3 | Nc1ccc([As](=O)(O)c2ccc([N+](=O)[O-])cc2)cc1 | inactive: -0.65% | –
4 | O=C(OC1CN2CCC1CC2)c1cccc(Cl)c1 (stereo not given) | inactive: 1.46% | –
5 | O=C(NC1CCS(=O)(=O)C1)NP(=S)(Oc1ccccc1)Oc1ccccc1 (stereo not given) | inactive: -14.7% | –
6 | CCNC(=S)/N=C(\N)N[N+](=O)[O-] | inactive: -6.11% | –
7 | CCOC(=O)NC(Sc1ccccc1)C(Cl)(Cl)Cl (stereo not given) | inactive: 0.516% | –
8 | Cc1ccc(NP(=O)(Oc2cccc(C)c2)Oc2cccc(C)c2)nc1 | inactive: -4.12% | –
9 | c1ccc(-c2nn[nH]n2)c(-c2nn[nH]n2)c1 | inactive: -19.2% | –
10 | Cc1ccc(OP(=O)(Nc2ccccn2)Oc2ccc(C)cc2)cc1 | inactive: -6.03% | –
11 | CC(=O)NC(SC(=S)N(CC(C)C)CC(C)C)C(Cl)(Cl)Cl (stereo not given) | inactive: -6.81% | –
12 | COC(=O)c1cc2c(s1)N=C(c1ccccc1)N(C)P2(=O)N1CCOCC1 (stereo not given) | inactive: 18.8% | –
13 | CCC(=O)N1C2C3N(C(=O)CC)C1C1N(C(=O)CC)C(C(N1C(=O)CC)N3C(=O)CC)N2C(=O)CC | inactive: -6.33% | –
14 | O=C(OC1CN2CCC1CC2)c1ccccc1 (stereo not given) | – | inactive
15 | CN(C)C(=O)Oc1noc2ccccc12 | inactive: 0.759% | –
16 | CC(NC(=O)COC(=O)C(O)(c1ccccc1)c1ccccc1)c1ccccc1 (stereo not given) | inactive: -8.79% | –
17 | CCOc1ccc(C2=NCC(CBr)S2)cc1 (stereo not given) | inactive: -0.559% | –
18 | O=P1(Nc2nc3ccc(Cl)cc3s2)COc2ccccc2O1 (stereo not given) | inactive: -0.52% | –
19 | CC(C)(C)C(=O)NC(Sc1ccccc1)C(Cl)(Cl)Cl (stereo not given) | inactive: -5.09% | –
20 | CC(=O)c1ccc(N2CC2c2ccncc2)cc1 (stereo not given) | inactive: 19.6% | –
21 | C[C@H]1OP(=O)(Oc2ccccc2)C[C@@H]2O[C@@H]21 (stereo not given in full) | inactive: -0.249% | –
22 | C[C@@H]1C=CCP(=O)(Oc2ccccc2)O1 (stereo not given in full) | inactive: -2.82% | –
23 | Cc1ccccc1CN(C)C(=O)COC(=O)C(O)(c1ccccc1)c1ccccc1 | inactive: 1.38% | –
24 | CC(=O)Nc1ccc(Oc2c([N+](=O)[O-])cc([N+](=O)[O-])cc2[N+](=O)[O-])cc1 | inactive: -18.2% | –
25 | CC(=O)Nc1ccc([As](=O)(O)O)c(O)c1 | inactive: -0.18% | –
